Experimental data from article PMC3610893, “The CouPSTU and TarPQM Transporters in Rhodopseudomonas palustris: Redundant, Promiscuous Uptake Systems for Lignin-Derived Aromatic Substrates” (PLoS ONE, 2013).

Biological target: T1, TarP (RPA1782) periplasmic binding-protein (Rhodopseudomonas palustris, UniProt Q6N8X0)
T1 sequence (Q6N8X0 20-336): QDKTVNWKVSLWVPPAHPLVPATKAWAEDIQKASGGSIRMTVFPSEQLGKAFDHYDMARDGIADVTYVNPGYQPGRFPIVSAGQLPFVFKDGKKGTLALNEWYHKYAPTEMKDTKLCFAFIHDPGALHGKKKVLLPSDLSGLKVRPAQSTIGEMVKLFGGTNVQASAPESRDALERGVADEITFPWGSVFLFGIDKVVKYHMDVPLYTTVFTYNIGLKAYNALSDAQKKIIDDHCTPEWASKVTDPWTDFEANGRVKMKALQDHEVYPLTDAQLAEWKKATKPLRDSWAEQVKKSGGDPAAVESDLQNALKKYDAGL
Test: Intrinsic tryptophan fluorescence spectroscopy / ligand titrations with TarP (RPA1782)
Settings: protein 0.2 µM, 10 mM Tris-HCl pH 7.4, 30°C, emission 340 nm; three independent titrations (cinnamate: two single titrations); read-out: K d (nM) TarP (RPA1782), fluorescence titrations
Method: Pure protein was unfolded by dialysis against 1 L of 6 M urea for 16 hours at 4°C. Refolding was effected by dialysis against 2 L of refolding buffer (50 mM Tris-HCl pH 7.2 plus 100 mM NaCl) for 8 hours, the buffer being changed every 2 hours with a final overnight dialysis. Once removed from the dialysis tubing, protein was centrifuged (13,000×g, 10 mins, 4°C) to remove any precipitated misfolded protein.
Changes in the UV fluorescence of intrinsic tryptophan residues in RPA1782 and RPA1789 were measured using a Cary Eclipse fluorimeter (Varian Ltd, UK) in 10 mM Tris-HCl buffer pH 7.4 at 30°C in a 3 ml volume. Excitation of samples was at 280 nm (5 nm slit width) and emission was recorded at 300–400 nm (20 nm slit width). Ligand titrations were performed with 0.2 µM protein with λex 280 nm λem 340 nm using 5 nm excitation and 20 nm emission slit widths respectively. Except where indicated, data from three independent titrations was used to calculate K d values, by fitting to the quadratic equation for tight binding as previously described.

Kd: 42 ± 7 nM
Compound: O=C(O)C(=O)Cc1ccc(O)cc1 [4-HPP, 4-hydroxyphenylpyruvate]
